Reference: patent publication US8957029 (MAX PLANCK GESELLSCHAFT ZUR FORDERUNG DER WISSENSCHAFTEN E V, dated 2015)

Legend:
[1] = biological target: rabbit muscle F-actin (rabbit, UniProt P68135 3-377); experiment: F-actin co-sedimentation, peptide fluorescence in pellet over total, hyperbolic fit
Experimental: Polymerization of actin was induced by addition of 0.1 volume 10×KMEI buffer (50 mM KCl, 1 mM MgCl_2, 1 mM EGTA, 10 mM imidazole HCl, pH 7.0) and incubation for >1 h at room temperature (RT). 44 µM of F— Lifeact was incubated 30 min with F-actin and then spun 30 min at 350,000×g at room temperature. The supernatant was removed and the pellet resuspended in 100 µl of 1×KMEI buffer. The amount of peptide was measured in a Cary Eclipse Fluorescence Spectrophotometer with excitation/emission set for FITC at 495 nm/520 nm. The bound/total ratio was calculated as the signal from the pellet divided by the total signal. The K_d was obtained by fitting to a hyperbolic curve.
An effective probe for actin should have no or very little influence on the dynamics of actin polymerization and depolymerization. We therefore tested the properties of F-Lifeact in in vitro assays for actin dynamics. To determine the affinity of Lifeact to filamentous actin we performed an F-actin co-sedimentation assay. The amounts of peptide in the pellet and in the supernatant were measured spectroscopically. F-Lifeact bound to muscle actin with a dissociation constant (K_d) of 3.1±0.7 µM (mean±95% CI, n=3, FIG. 2a). The K_d for non-muscle actin was 5.4±2.6 µM. […] We also determined whether F-Lifeact binds to G-actin by monitoring fluorescence quenching of pyrene-labelled actin as a function of peptide concentration.

[2] = biological target: pyrene-labelled actin (UniProt P68135 3-377); experiment: fluorescence quenching of pyrene-labelled G-actin as a function of peptide concentration, hyperbolic fit

Kd [1]: 3.1 µM
Kd [2]: 3 µM
B1: F-Lifeact (chemically synthesized 17aa Lifeact peptide tagged with fluorescein at its N-terminus) (peptide)
peptide: MGVADLIKKFESISKEE
modifications: fluorescein (FITC) at the N-terminus
notes: also called fluorescein conjugated Lifeact; F-Lifeact peptide
